The source of these data is ChEMBL document CHEMBL4831477, “Structure-Enabled Discovery of Novel Macrocyclic Inhibitors Targeting Glutaminase 1 Allosteric Binding Site” (J Med Chem, 2021).

Data set [1] has as its target T1, Glutaminase kidney isoform, mitochondrial (Homo sapiens, UniProt O94925).
T1 sequence (O94925 whole entry): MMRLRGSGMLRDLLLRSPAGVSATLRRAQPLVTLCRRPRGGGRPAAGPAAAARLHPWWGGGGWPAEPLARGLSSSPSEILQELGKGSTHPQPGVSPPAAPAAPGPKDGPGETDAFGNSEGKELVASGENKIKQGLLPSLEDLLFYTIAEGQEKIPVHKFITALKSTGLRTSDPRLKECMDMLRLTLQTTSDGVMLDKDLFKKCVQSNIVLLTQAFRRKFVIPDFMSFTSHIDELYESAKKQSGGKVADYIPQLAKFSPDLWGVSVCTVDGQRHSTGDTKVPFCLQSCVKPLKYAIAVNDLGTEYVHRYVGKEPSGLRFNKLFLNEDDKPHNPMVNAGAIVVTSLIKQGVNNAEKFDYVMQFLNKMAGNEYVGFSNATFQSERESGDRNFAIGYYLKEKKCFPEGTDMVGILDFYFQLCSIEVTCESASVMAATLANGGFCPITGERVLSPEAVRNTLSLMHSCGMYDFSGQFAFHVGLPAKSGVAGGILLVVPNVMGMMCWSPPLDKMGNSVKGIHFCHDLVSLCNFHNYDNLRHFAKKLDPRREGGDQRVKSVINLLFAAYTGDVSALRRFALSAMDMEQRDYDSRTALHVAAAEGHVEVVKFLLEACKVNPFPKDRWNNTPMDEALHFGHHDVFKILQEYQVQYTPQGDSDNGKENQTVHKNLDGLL
As to the kind of experiment: Inhibition of recombinant human GLS1 expressed in Escherichia coli strain BL21 (DE3) preincubated for 10 mins before glutamine addition and measured after 60 mins by bovine liver glutamate dehydrogenase based coupled enzyme assay.

For data set [2], the target named is T2, Glutaminase kidney isoform, mitochondrial (Homo sapiens) (UniProt O94925).
T2 sequence (whole entry): T1 sequence (O94925 whole entry)
As to conditions: HCT-116, dose 50-200 nM, time 12.0 hrs.

In data set [3] the target is T2, Glutaminase kidney isoform, mitochondrial (Homo sapiens). To be noted: dose 300.0 µM.
For data set [4] the target is unchanged. To be noted: HCT-116, dose 50-200 nM, time 12.0 hrs. This is another data set of the same source.
Data set [5] is described as follows: Ratio of fCmax in BALB/c nude mouse plasma xenografted with human HCT-116 cells at 200 mg/kg, po administered twice daily for 28 days to IC50 for human HCT-116 cells. Format: ADME, organism-based. As to conditions: in vivo, 672 h, time 28 day. (Xenograft models place foreign cells or tissue in a host animal.)
Data set [6] deals with T2, Glutaminase kidney isoform, mitochondrial (Homo sapiens).
For data set [7], the target named is T1, Glutaminase kidney isoform, mitochondrial. Briefly: Binding affinity to human GLS1 expressed in Escherichia coli strain BL21 (DE3) by ITC analysis.
Data set [8] has as its target T2, Glutaminase kidney isoform, mitochondrial (Homo sapiens). As to conditions: HCT-116, dose 50-200 nM.
Data set [9] addresses T1, Glutaminase kidney isoform, mitochondrial. Briefly: Binding affinity to human GLS1 expressed in Escherichia coli strain BL21 (DE3) assessed as dissociation rate constant by surface plasmon resonance analysis. Background: In SPR one partner is held on a chip, and binding of the other changes the refractive index at the surface.
Data set [10] has as its target T2, Glutaminase kidney isoform, mitochondrial (Homo sapiens). As to conditions: HCT-116, dose 50-200 nM, time 12.0 hrs. This is another data set of the same source.
For data set [11] the target is unchanged. This is another data set of the same source.
Data set [12] has the same target. The source holds these as a separate data set.
The target of data set [13] is T1, Glutaminase kidney isoform, mitochondrial. As to the kind of experiment: Binding affinity to human GLS1 expressed in Escherichia coli strain BL21 (DE3) assessed as dissociation constant by surface plasmon resonance analysis.
In data set [14] the target is T2, Glutaminase kidney isoform, mitochondrial (Homo sapiens). To be noted: HCT-116, dose 50-200 nM. This is another data set of the same source.
Data set [15] has the same target. As to conditions: HCT-116, dose 50-200 nM, time 12.0 hrs. This is another data set of the same source.
Data set [16] has the same target. To be noted: HCT-116, dose 50-200 nM, time 12.0 hrs. This is another data set of the same source.
Data set [17] has as its target T1, Glutaminase kidney isoform, mitochondrial. As to the kind of experiment: Binding affinity to human GLS1 expressed in Escherichia coli strain BL21 (DE3) assessed as association rate constant by surface plasmon resonance analysis.

Structures are written as SMILES. Calls of active or inactive are those of the source. The calls are words filed in the database; no cut-off is given here.

The term IC50 denotes the concentration at which inhibition is half-maximal. Broadly, the ΔTm is the change in melting temperature against a reference sample. Broadly, the Kd is the concentration at which binding is half-saturated. As a reminder, the koff is the first-order rate constant of dissociation. The kon is the second-order rate constant of association. Take `O=C1Cc2cccc(c2)OCC/C=C/CCOc2cccc(c2)CC(=O)Nc2nnc(s2)CCCCc2ccc(nn2)N1`: in data set [1], the IC50 is 6 nM. Moreover, the inhibition result in data set [2], in [4], in data set [8], in data set [10], in data set [14] and in data set [15] was “Active” each time. For the same molecule, the inhibition entry in [16] was “Active”. In addition, the deltaH in data set [3] was -15.1 kcal/mol. Moreover, in [5], the Ratio is on record as 2.62. For the same molecule, the ΔTm in [6] turned out to be 16.2 °C; in data set [11] it was 18.4 °C; in data set [12], 17.4 °C. The Kd turned out to be 37 nM in data set [7] and 24.2 nM in data set [13]. Further, the koff in data set [9] stood at 0.003 s⁻¹. In addition, the on-rate (kon) in data set [17] was determined as 20900 M⁻¹ s⁻¹.
